Assay results reported in patent US20200016207A1, “TRANSGENIC c-MPL PROVIDES LIGAND-DEPENDENT CO-STIMULATION AND CYTOKINE SIGNALS TO TCR-ENGINEERED T CELLS” (Baylor College of Medicine, priority 2017, published 2020).

How the values were obtained:
Assay type in all cases: cell-based, human
BV173 leukemia cells [1] = assay: Serial (sequential) co-culture with BV173 leukemia cells; settings: E:T 1:5, versus no cytokines
Procedure: (§1) Cells were stained ith antibodies and analyzed by flow cytometry. Cells were stained with FITC-, phycoerythrin- (PE-), peridinin chlorophyll protein-(PerCP-), or allophycocyanin-conjugated (APC-conjugated) antibodies (Abs) against CD3, CD4, CD8, CD110 (c-MPL), murine TCR constant region (mCβ, ebioscience), CD19, or CD138. Cell viability was assessed by 7-AAD staining. T cells and tumor cell populations from co-culture assays were quantified by adding CountBright Beads (Invitrogen) to the analysis. T cell memory marker expression on CD8+ T cells re-covered from co-cultures was analyzed by staining cells with FITC-, PE-, ECD-, PerCP-, APC-, APC-AF750, or V450-conjugated Abs against CD45RO, CD45RA, CD62L, CCR7, CD110, mCβ, CD19, and 7AAD. Intracellular staining for phosphoproteins pSTAT3 and pSTAT5 was performed with PE- and Pacific Blue-conjugated Abs and Phosflow reagents (BD). To assess cell proliferation, cells were labeled with Carboxyfluorescein succinimidyl ester (CFSE, ThermoFisher) and analyzed after 7 days of culture. […]
(§2) BV173 or U266B1 cells and T cells were co-cultured in up to eight replicate wells at various E:T ratios in CTL media with no cytokines, rhTPO (5 ng/mL or 50 ng/mL), or EP (0.1 μg/mL). […] Every 3-4 days of co-culture, cells were harvested from a replicate culture well and analyzed by FACS for tumor- and T cell counts, as well as T cell memory marker phenotype. […]

TCR+ T cells = assay: Antigen-specific expansion with survivin peptide-pulsed aAPCs, TCR+ T cells; settings: IL-2 50 U/mL; rhTPO up to 500 ng/ml
Procedure: aAPCs (described above) were pulsed with the LMLGEFLKL survivin peptide (Genemed Synthesis), irradiated at 100 cGy, and used to stimulate T cells at an E:T ratio of 4:1 with IL-2 (50 U/mL) or rhTPO (5 ng/mL, 50 ng/mL, or 500 ng/mL). At the end of the first stimulation (7 days), cells were collected, counted, phenotyped and re-stimulated with fresh peptide-pulsed aAPCs under the same conditions. Fold expansion was recorded at the end of the second stimulation.

BV173 leukemia cells [2] = assay: Co-culture of TCR+c-MPL+ T cells with BV173 leukemia cells; settings: rhTPO 50 ng/ml, IL2 25 U/ml
Procedure: as §1, §2

U266 myeloma cells = assay: Co-culture of TCR+c-MPL+ T cells with U266 myeloma cells; settings: rhTPO 50 ng/ml, IL2 25 U/ml, n=3
Procedure: as §1, §2

IL2: interleukin-2 cytokine used as control culture condition
T cell expansion in serial co-culture (BV173 leukemia cells [1]): significantly enhanced
antigen-specific expansion of TCR+ T cells (TCR+ T cells): expanded
residual BV173 cells (BV173 leukemia cells [2]; day 5, E:T 1:3, TCR+c-MPL+ T cells, noCK 10.3±7.9×10^3): 3.52±5.27×10^3
T cell count in BV173 co-culture (BV173 leukemia cells [2]; day 5, E:T 1:3, noCK 16.7±8.1×10^4): 56.2±25.2×10^4
residual U266 cells (U266 myeloma cells; day 5, E:T 1:1, TCR+c-MPL+ T cells, noCK 43.3±1.1×10^5): 3.13±0.45×10^5
T cell count in U266 co-culture (U266 myeloma cells; day 5, E:T 1:1, noCK 1.84±0.31×10^5): 25.2±7.2×10^5
